Experimental data published in EP4837912A1, “HETEROCYCLIC COMPOUND AND PHARMACEUTICAL COMPOSITION THEREOF” (dated 2026).

What was measured:
[1] = Blood-brain distribution experiment in mice; settings: IV 2 mg/kg, 0.5 h after administration
Description: Male Balb/c mice were divided into groups, with 3 mice in each group, and received a single intravenous administration of the compound of the example (2 mg/kg), respectively. Animals were fasted overnight before the experiment, with food withheld from 10 hours before administration until 4 hours after administration. Each mouse was sacrificed 0.5 hours after administration, and blood and brain tissue were collected. Samples were centrifuged at 4000 rpm for 5 min at 4°C, and plasma was transferred to centrifuge tubes and stored at -80°C until analysis. Plasma samples were extracted using protein precipitation, and the extracts were analyzed by LC/MS/MS. […] Table 4: Concentration ratios of drugs in Blood-brain 0.5 h after administration in mice IV

[2] = Pharmacokinetic test in mice (plasma, LC/MS/MS)
Description: Male Balb/c mice were divided into groups, with 3 mice in each group. The compound of Example 1 was dissolved in vehicle: 5% DMSO/10% Solutol/85% (20% Captisol in water). The compound of Example 1 was administered intravenously (2 mg/kg) and orally as a single gavage (10 mg/kg), respectively. Animals were fasted overnight before the experiment, with food withheld from 10 hours before administration until 4 hours after administration. Blood samples were collected at 0.0833, 0.25, 0.5, 1, 2, 4, 6, 8, and 24 hours after intravenous administration, and at 0.25, 0.5, 1, 2, 4, 6, 8, and 24 hours after oral administration. 0.3 mL of whole blood was collected under isoflurane anesthesia into heparinized tubes. Samples were centrifuged at 4000 rpm for 5 min at 4°C, and plasma was transferred to centrifuge tubes and stored at -80°C until analysis. Plasma samples were extracted using protein precipitation, and the extracts were analyzed by LC/MS/MS. The pharmacokinetic results are shown in Tables 2 and 3 below: Table 2: Pharmacokinetic parameters of the compound in mouse plasma after intravenous administration

[3] = mouse plasma, intravenous administration, 2 mg/kg
[4] = mouse plasma, oral administration (single gavage), 10 mg/kg

Row | Compound | Concentration ratios of drugs in Brain/Blood [1] | Drug in brain tissue [1] | Drug in plasma [1] | crossing of the blood-brain barrier (in words) [1] | AUC0-t [2, 3] | C0 [2, 3] | Cl [2, 3] | T1/2 [2, 3] | AUC0-t [2, 4] | Cmax [2, 4] | T1/2 [2, 4] | Tmax [2, 4] | Bioavailability ([2]; mouse, oral 10 mg/kg vs intravenous 2 mg/kg)
1 | C#Cc1cc(C)c(-c2ccc3oc(N[C@@H]4CCCN(CCO)C4)nc3n2)c(O)c1 | 19.7% | 54 ng/mL | 275 ng/mL | does not readily cross the blood-brain barrier | – | – | – | – | – | – | – | – | –
2 | C#Cc1cc(C)c(-c2ccc3oc(N[C@@H]4CCCN(C)C4)nc3n2)c(O)c1 | 73.6% | 348 ng/mL | 473 ng/mL | can cross the blood-brain barrier | 6954 ng·h/mL | 1727 ng/mL | 4.20 mL/min/kg | 8.85 h | 31402 ng·h/mL | 2947 ng/mL | 6.71 h | 1.33 h | 84.5%
